This note sets out measurements from patent US12030872B2, “N-heteroaryl indazole derivatives as LRRK2 inhibitors, pharmaceutical compositions, and uses thereof” (Merck Sharp & Dohme LLC, priority 2018, dated 2024).

Amino acid sequences for entries named in this document (tags omitted). Residues count along the entry.
UniProt Q5S007, 970-2527 G2019S: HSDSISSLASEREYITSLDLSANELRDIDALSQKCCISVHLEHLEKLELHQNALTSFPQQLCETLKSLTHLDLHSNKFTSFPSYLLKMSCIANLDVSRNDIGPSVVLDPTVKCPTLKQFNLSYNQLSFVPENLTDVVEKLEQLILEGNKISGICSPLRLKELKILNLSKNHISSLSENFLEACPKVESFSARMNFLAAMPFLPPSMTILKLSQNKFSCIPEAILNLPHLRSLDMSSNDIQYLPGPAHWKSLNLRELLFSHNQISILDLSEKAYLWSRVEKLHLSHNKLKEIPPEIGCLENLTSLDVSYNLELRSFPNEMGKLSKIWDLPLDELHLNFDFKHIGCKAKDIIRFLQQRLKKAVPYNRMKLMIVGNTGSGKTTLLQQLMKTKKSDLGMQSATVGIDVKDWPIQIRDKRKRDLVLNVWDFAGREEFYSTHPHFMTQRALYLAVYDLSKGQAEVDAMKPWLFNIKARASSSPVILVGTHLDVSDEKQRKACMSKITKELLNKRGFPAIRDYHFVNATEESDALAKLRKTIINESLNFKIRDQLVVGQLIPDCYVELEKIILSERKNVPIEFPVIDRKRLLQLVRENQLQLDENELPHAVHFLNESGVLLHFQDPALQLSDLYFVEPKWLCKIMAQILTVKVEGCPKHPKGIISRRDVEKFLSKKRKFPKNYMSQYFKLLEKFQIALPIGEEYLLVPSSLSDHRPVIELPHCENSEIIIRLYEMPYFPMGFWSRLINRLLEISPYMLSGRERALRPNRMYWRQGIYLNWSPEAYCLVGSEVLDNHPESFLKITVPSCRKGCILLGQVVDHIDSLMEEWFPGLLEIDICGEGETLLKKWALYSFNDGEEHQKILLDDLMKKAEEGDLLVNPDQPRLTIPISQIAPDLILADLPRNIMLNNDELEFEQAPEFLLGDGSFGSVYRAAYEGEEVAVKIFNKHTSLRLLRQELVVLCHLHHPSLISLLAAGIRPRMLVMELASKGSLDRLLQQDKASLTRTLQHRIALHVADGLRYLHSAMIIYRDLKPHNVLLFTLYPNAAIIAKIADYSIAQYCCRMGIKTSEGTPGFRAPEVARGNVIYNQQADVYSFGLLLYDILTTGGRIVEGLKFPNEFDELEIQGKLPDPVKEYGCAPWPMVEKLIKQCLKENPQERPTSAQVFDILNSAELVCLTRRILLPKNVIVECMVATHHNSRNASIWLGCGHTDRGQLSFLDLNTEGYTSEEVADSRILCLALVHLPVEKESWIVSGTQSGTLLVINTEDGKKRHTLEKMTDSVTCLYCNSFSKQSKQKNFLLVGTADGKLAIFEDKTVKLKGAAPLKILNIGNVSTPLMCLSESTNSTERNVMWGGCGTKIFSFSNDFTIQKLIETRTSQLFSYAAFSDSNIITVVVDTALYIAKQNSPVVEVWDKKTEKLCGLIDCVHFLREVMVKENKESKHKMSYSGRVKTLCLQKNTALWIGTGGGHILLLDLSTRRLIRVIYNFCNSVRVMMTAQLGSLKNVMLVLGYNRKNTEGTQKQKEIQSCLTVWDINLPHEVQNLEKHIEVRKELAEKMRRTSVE

A word on the IC50: it is the midpoint of a concentration-inhibition curve.

The assay has as its target GST-tagged truncated human mutant G2019S LRRK2 (Homo sapiens (Human), UniProt Q5S007, G2019S). Kind of assay: LRRK2 G2019S Km ATP LanthaScreen Assay. Particulars: LRRKtide substrate, mean IC50 values.
The mark [1] stands for this setting: LRRK2 IC50, G2019S LRRK2, 134 μM ATP (Km ATP).
Setting [2] is: read-out: LRRK2 IC50, G2019S LRRK2, 134 μM ATP (Km ATP).

Like-named read-outs stand apart in the source and are kept apart here.

Under setting [1], `COC(=O)C12CC(c3cc4c(cnn4-c4cnn(C)c4)cc3Cl)(C1)C2` [Example 33.1, methyl 3-(5-chloro-1-(1-methyl-1H-pyrazol-4-yl)-1H-indazol-6-yl)bicyclo[1.1.1]pentane-1-carboxylate] returned an IC50 of 797 nM.
Consider `Cc1cnc(-n2ncc3ccc(C4(C#N)CC45CC5)cc32)o1` (stereo not shown) [Example 1.6], for which the IC50 under setting [2] turned out to be 57.6 nM.
The same measure, in the same setting: to `Cn1cc(-n2ncc3cc(Cl)c(C4CCN(CCO)CC4)cc32)cn1` [Example 16.3] belongs 3.7 nM.
Under setting [1], `Cn1cc(-n2ncc3cc(Cl)c(C4CCN(C5COC5)C4)cc32)cn1` (single isomer, unassigned) [Example 30.5-1, (R or S)-5-chloro-1-(1-methyl-1H-pyrazol-4-yl)-6-(1-(oxetan-3-yl)pyrrolidin-3-yl)-1H-indazole] came in with a half-inhibitory concentration (IC50) of 190 nM.
For the molecule `Cc1cnc(-n2ncc3cc(Cl)c(C4CCN(C5COC5)CC4)cc32)o1` [Example 2.6], the half-maximal inhibitory concentration (IC50) under setting [2] is 3.7 nM.
`Cn1cc(-n2ncc3cc(Cl)c(C4CCN(CCS(C)(=O)=O)CC4)cc32)cn1` [Example 16.2, 5-chloro-1-(1-methyl-1H-pyrazol-4-yl)-6-(1-(2-(methylsulfonyl)ethyl)piperidin-4-yl)-1H-indazole] gave an IC50 under setting [1] of under 0.625 nM.
On the same count and under the same terms, to `O=S1(=O)CC(N2CCC(c3cc4c(cnn4-c4cnn(C56CC(C5)C6)c4)cc3Cl)CC2)C1` [Example 37.1, 3-(4-(1-(1-(bicyclo[1.1.1]pentan-1-yl)-1H-pyrazol-4-yl)-5-chloro-1H-indazol-6-yl)piperidin-1-yl)thietane 1,1-dioxide] belongs under 0.625 nM.
For the molecule `CC1(N2CCC(c3cc4c(cnn4-c4cnn(C5CC5)c4)cc3Cl)CC2)CCOC1` (single isomer, unassigned) [Example 15.3-1, (R or S)-5-chloro-1-(1-cyclopropyl-1H-pyrazol-4-yl)-6-(1-(3-methyltetrahydrofuran-3-yl)piperidin-4-yl)-1H-indazole], the concentration for half-maximal inhibition (IC50) under setting [1] was under 0.625 nM.
Under setting [1], `Cn1cc(-n2ncc3cc(Cl)c(C4CCN(C5COC5)C4)cc32)cn1` (single isomer, unassigned) [Example 30.5-2, (R or S)-5-chloro-1-(1-methyl-1H-pyrazol-4-yl)-6-(1-(oxetan-3-yl)pyrrolidin-3-yl)-1H-indazole] gave an IC50 of 202 nM.
Turning to `Cn1cc(-n2ncc3cc(Cl)c(C4CCN(CC(F)(F)F)CC4)cc32)cn1` [Example 18.3], under setting [2], the IC50 is 324 nM.
On to `Cc1cc2cnn(-c3cnn(C)c3)c2cc1C1CCN(C2COC2)C[C@H]1F` (single isomer, unassigned) [Example 22.1-1, (R,R or S,S)-6-(3-fluoro-1-(oxetan-3-yl)piperidin-4-yl)-5-methyl-1-(1-methyl-1H-pyrazol-4-yl)-1H-indazole], for which the concentration for half-maximal inhibition (IC50) under setting [2] was 8.4 nM.
Still for that read-out and setting: as for `Cc1cc(-n2ncc3cc(Cl)c([C@@H]4CCN(C)C[C@H]4F)cc32)sn1` [Example 19.8-2], the figure is 5.9 nM; as for `C[C@H]1CN(C2(C)COC2)CCC1c1cc2c(cnn2-c2cnn(C)c2)cc1Cl` (single isomer, unassigned) [Example 27.5-2, (R,S or S,R)-5-chloro-6-(3-methyl-1-(3-methyloxetan-3-yl)piperidin-4-yl)-1-(1-methyl-1H-pyrazol-4-yl)-1H-indazole], 12.6 nM.
`Clc1cc2cnn(-c3cn[nH]c3)c2cc1C1CCN(C2COC2)CC1` [Example 4.1, 5-chloro-6-(1-(oxetan-3-yl)piperidin-4-yl)-1-(1H-pyrazol-4-yl)-1H-indazole]: under setting [1], the IC50 was 1.4 nM.
`C[C@@H]1CN(C2COC2)CCC1c1ccc2cnn(-c3cnn(C)c3)c2c1` (single isomer, unassigned) [Example 26.7-2, (R,R or S,S)-6-(3-methyl-1-(oxetan-3-yl)piperidin-4-yl)-1-(1-methyl-1H-pyrazol-4-yl)-1H-indazole]: the 50% inhibitory concentration (IC50) under setting [2] was 36.2 nM.
For `COC(=O)n1cc(-n2ncc3cc(Cl)c(C4CCN(C5COC5)CC4)cc32)cn1` [Example 5.2], the IC50 under setting [2] was 1.4 nM.
